Source: patent US7622441B2, “Sustained release pharmaceutical compounds to prevent abuse of controlled substances” (Shire LLC, priority 2002, dated 2009)
Read-outs that look alike come from different tables or passages of the source.

Tests used:
[1] = Pharmacokinetics of narcotic conjugates by oral administration (serum hydrocodone/oxycodone by ELISA); conditions: for Shape of the Curve: rat serum concentration curve vs. parent drug; for Peak Time / % AUC / % Cmax: rat serum; for Peak Time: multiple of parent drug's peak time; for % AUC / % Cmax: vs. equivalent dose of parent drug
[2] = Stability of narcotic conjugates in water (narcotic release, abuse resistance tests); assay type: physicochemical; conditions: numbers based upon narcotic release
[3] = intranasal, serum, buffer PBS

Row | Substance | Shape of the Curve [1] | Peak Time [1] [X] | % AUC [1] [%] | % Cmax [1] [%] | H2O (1 h, 90 C.) [2] | H2O (24 h, RT) [2] | Comments (curve) [3] | Peak Time ([3]; multiple of hydrocodone's peak time) [X] | % AUC ([3]; vs. hydrocodone) [%] | % Cmax ([3]; vs. hydrocodone) [%]
1 | Ala-Pro-Hydrocodone [Ala-Pro-HC] | ++Clearance | 1 | 48 | 106 |  |  |  |  |  | 
2 | Boc-Gly-Gly-Leu-Hydrocodone [Boc-Gly-Gly-Leu-HC] | +Clearance | 1 | 68 | 96 |  |  |  |  |  | 
3 | Gly-Gly-Leu-Hydrocodone [Gly-Gly-Leu-HC] | +Clearance | 1 | 82 | 126 | 16 | 5 | Flat curve | 6 | 77 | 62
